Source: patent publication US20030215462A1, “Use of UGT inhibitors to increase bioavailability” (priority 2001, published 2003)

Assays:
[1] = system: pooled human jejunum microsomes
UGT1A3 = biological target: T1, UGT1A3 (Homo sapiens, UniProt P35503); assay: Substrate glucuronidation by recombinant UGT1A3
T1 sequence (P35503 29-534): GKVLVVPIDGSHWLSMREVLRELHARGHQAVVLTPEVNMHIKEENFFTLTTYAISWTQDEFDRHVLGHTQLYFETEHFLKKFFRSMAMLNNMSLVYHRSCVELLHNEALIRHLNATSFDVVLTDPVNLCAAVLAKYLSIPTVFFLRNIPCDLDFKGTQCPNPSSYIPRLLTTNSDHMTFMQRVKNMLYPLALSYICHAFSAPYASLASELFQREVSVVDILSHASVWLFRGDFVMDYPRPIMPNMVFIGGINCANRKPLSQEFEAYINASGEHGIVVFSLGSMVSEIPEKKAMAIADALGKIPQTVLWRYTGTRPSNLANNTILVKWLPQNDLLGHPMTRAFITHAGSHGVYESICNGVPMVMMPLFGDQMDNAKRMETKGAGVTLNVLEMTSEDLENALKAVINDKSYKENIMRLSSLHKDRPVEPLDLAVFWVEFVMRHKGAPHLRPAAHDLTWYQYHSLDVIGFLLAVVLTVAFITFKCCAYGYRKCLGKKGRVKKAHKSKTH

UGT1A4 = biological target: T2, UGT1A4 (Homo sapiens, UniProt P22310); assay: Substrate glucuronidation by recombinant UGT1A4; settings: UGT1A4 Supersomes; 2ME2 50 μM
T2 sequence (P22310 29-534): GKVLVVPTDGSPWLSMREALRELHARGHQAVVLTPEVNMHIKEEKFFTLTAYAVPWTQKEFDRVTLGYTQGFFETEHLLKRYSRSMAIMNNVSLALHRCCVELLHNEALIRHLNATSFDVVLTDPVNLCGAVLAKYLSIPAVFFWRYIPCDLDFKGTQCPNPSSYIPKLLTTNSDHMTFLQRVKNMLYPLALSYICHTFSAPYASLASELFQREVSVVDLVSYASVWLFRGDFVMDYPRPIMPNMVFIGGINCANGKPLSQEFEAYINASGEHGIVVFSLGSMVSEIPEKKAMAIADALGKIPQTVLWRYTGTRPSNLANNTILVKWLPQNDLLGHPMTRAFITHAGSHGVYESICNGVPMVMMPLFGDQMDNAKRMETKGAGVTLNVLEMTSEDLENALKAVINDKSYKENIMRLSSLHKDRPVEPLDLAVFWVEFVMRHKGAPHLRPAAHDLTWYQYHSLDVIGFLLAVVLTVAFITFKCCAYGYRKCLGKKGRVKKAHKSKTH

UGT1A6 = biological target: T3, UGT1A6 (Homo sapiens, UniProt P19224); assay: Substrate glucuronidation by recombinant UGT1A6
T3 sequence (P19224 27-532): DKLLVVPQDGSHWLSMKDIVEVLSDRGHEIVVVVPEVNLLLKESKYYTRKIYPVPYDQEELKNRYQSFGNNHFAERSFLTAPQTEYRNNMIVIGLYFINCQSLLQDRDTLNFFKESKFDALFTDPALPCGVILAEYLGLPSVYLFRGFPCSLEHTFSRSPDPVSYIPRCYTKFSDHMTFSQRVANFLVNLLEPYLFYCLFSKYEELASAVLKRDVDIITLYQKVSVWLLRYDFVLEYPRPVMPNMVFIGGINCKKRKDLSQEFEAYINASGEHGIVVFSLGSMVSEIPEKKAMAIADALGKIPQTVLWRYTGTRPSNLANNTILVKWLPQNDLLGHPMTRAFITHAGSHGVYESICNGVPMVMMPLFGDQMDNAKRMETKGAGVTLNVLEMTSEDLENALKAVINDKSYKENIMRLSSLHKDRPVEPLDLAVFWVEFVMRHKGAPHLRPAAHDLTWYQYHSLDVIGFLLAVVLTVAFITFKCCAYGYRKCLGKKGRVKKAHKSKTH

UGT1A10 = biological target: T4, UGT1A10 (Homo sapiens, UniProt Q9HAW8); assay: Substrate glucuronidation by recombinant UGT1A10; settings: UGT1A10 Supersomes; 2ME2 50 μM
T4 sequence (Q9HAW8 26-530): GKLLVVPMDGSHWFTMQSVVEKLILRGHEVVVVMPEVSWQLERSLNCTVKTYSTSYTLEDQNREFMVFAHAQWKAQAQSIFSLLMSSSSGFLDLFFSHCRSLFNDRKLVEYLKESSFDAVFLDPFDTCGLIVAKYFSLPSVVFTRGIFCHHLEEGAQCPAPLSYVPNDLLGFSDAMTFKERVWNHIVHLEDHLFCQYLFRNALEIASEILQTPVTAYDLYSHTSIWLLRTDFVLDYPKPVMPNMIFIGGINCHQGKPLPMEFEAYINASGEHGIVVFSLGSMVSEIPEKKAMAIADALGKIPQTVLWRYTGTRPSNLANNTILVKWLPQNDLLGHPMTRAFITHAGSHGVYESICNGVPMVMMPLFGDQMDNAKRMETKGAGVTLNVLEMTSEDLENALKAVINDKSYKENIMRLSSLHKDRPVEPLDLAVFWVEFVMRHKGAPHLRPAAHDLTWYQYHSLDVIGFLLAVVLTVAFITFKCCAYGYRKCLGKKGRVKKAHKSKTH

COc1cc2c(cc1O)CC[C@@H]1[C@@H]2CC[C@]2(C)[C@@H](O)CC[C@@H]12 [2ME2, 2-Methoxyestradiol]
metabolism in intestinal (jejunal) versus hepatic microsomes, fold greater [1]: 20 fold | ratio MG1/MG2 ([1]; jejunum HJ61, 2ME2 50 μM): 541 | relative metabolite level MG1 ([1]; jejunum HJ61, 2ME2 50 μM): 541 ± 18 | relative metabolite level MG2 ([1]; jejunum HJ61, 2ME2 50 μM): 1.0 ± 0.1 | 2ME2 metabolic activity as % of the activity of UGT1A10 (UGT1A3; UGT1A3): less than 10% | ratio MG1/MG2 (UGT1A3; UGT1A3 Supersomes, 2ME2 50 μM): 10.6 | relative metabolite level MG1 (UGT1A3; UGT1A3 Supersomes, 2ME2 50 μM): 18 ± 1 | relative metabolite level MG2 (UGT1A3; UGT1A3 Supersomes, 2ME2 50 μM): 1.7 ± 0.1 | relative metabolite level MG1 (UGT1A4): <LOQ | relative metabolite level MG2 (UGT1A4): 6.1 ± 0.1 | 2ME2 metabolism, in words (UGT1A6; UGT1A6): No 2ME2 metabolism was observed | relative metabolite level MG1 (UGT1A6; UGT1A6 Supersomes, 2ME2 50 μM): <LOQ | relative metabolite level MG2 (UGT1A6; UGT1A6 Supersomes, 2ME2 50 μM): <LOQ | rate of 2ME2 loss (UGT1A10): 3056 ± 43 pmol/min/mg | relative metabolite level MG1 (UGT1A10): 212 ± 1 | relative metabolite level MG2 (UGT1A10): <LOQ
